These are literature values, as cited in paper PMC7699892, “Repositioned Drugs for Chagas Disease Unveiled via Structure-Based Drug Repositioning” (International Journal of Molecular Sciences, 2020).

For the data set, the system named is T. cruzi. Also on record: method as in per drug in column Reference of Table 2; key: ? indicates unknown activity; + indicates indirect evidence of activity; ++ indicates direct evidence of activity. The conditions noted are these: class of literature evidence of trypanocidal activity; ref per drug in Table 2; cited from earlier work.

Take `O=P(O)(O)C(O)(Cc1cccnc1)P(=O)(O)O` [Risedronate]: the “Trypan. Activity” value is reported as “++”.
